Results published in patent EP4094762A1, “TREATMENT OF NEUROLOGICAL INDICATIONS” (UCL Business Ltd, priority 2021, dated 2022).

Assay: CNS penetration: intravenous cassette pharmacokinetic study, brain and plasma by LC-MS/MS
Conditions: mouse, t = 2 hr, 0.4mg/kg intravenous

For `CC(C)(C)c1ccccc1Oc1cccc(O)c1NC(=O)Nc1ccc(OC(F)(F)F)cc1` [S11, 1-(2-(2-(tert-butyl)phenoxy)-6-hydroxyphenyl)-3-(4-(trifluoromethoxy)phenyl)urea], which CNS penetration: total brain to plasma ratio is on record?
The CNS penetration: total brain to plasma ratio was 3.1.

Which CNS penetration: total brain to plasma ratio does the source give for `CC(C)(C)c1ccccc1Oc1ncccc1NC(=O)Nc1ccc(C(F)(F)F)s1` [S8, 1-(2-(2-(tert-butyl)phenoxy)pyridin-3-yl)-3-(5-(trifluoromethyl)thiophen-2-yl)urea] here?
Its CNS penetration: total brain to plasma ratio is 0.75.

Which CNS penetration: total brain to plasma ratio does the source give for `O=C(Nc1ccc(OC(F)(F)F)cc1)Nc1cccnc1Oc1ccccc1C1(C(F)(F)F)CC1` [S4, 1-(4-(trifluoromethoxy)phenyl)-3-(2-(2-(1-(trifluoromethyl)cyclopropyl)phenoxy)pyridin-3-yl)urea] here?
Its CNS penetration: total brain to plasma ratio is 0.53.
